Antibody variant affinities, Ab-95 light chain, assay 2

Values reported by Engelhart et al. 2022, doi:10.1038/s41597-022-01779-4 (FLAb copy).

Target: peptide PDVDLGDISGINAS, taken from heptad repeat 2 (HR2) of SARS-CoV-2 spike.

Parent scFv Ab-95: VH joined to VL by the linker GGGGSGGGGSGGGGS. Changes lie in the light chain CDRs alone.
VH: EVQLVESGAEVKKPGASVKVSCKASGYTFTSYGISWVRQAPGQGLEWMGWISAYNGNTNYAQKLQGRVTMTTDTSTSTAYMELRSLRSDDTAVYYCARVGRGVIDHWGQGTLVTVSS
VL: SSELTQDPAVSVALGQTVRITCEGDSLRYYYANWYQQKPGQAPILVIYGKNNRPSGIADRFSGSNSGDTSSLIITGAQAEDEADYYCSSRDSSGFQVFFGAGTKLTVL

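The library (AAYL52) carries one to three amino acid substitutions per variant, with no insertions or deletions. AlphaSeq pools MATa yeast showing the antibodies with MATalpha yeast showing the peptide. Binding brings cells together so that they mate, and sequencing counts the barcode pairs among the diploids. Read counts were normalised to the haploid input and turned into Kd by a linear fit to BCL2-family pairs of known affinity, for each replicate. The assay was run in three technical replicates.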

The parent's light chain CDRs are EGDSLRYYYAN, GKNNRPS, SSRDSSGFQVF; each variant's own CDRs replace them letter for letter. Numbers give log10(Kd / nM), so 0 is 1 nM and 3 is 1 µM. Smaller is tighter. Averages over replicates are reported, and they cover detected replicates only. "nd" marks a missing value. The strain was present, yet no cells mated with the target were sequenced in that replicate, which points to weak or no binding.

With EGSSLSYYYAN / GKNNRPS / SSRDSSGFQVL the result was 2.62, 2.81, 1.91 (mean 2.45; controls 4 of 9).
With EGDTLRYYYAN / GKNNRPS / SSRDSSGFQVF the result was 3.88, 3.87, 2.81 (mean 3.52; controls 2 of 9).
With EGDSLRYYYLN / GKINRPS / YSRDSSGFQVF the result was nd, 4.52, nd (controls 3 of 9).
With EGDSLRYYYAN / GKNNRPS / SSADSGGFQVF the result was 2.70, 2.39, 2.85 (mean 2.65; controls 7 of 9).
With EGDSLRYYYAN / GMNNRPC / SSRDSSGFQMF the result was nd, nd, nd (controls 2 of 9).
With EGDSLRYYYAN / GPNNRMS / SSRDSSGFQWF the result was 2.58, 3.27, 2.95 (mean 2.93; controls 2 of 9).
With EGDALRYYYAN / GKNNRPS / SSRDSSGFQVF the result was 2.18, 2.08, 1.84 (mean 2.03; controls 2 of 9).
With EGDSHRYYQAN / GENNRPS / SSRDSSGFQVF the result was 2.40, 2.45, 2.26 (mean 2.37; controls 3 of 9).
With EGDSLRNPMAN / GKNNRPS / SSRDSSGFQVF the result was 1.84, 2.41, 1.37 (mean 1.87; controls 1 of 9).
With EGDSLRYYYCN / GKNNRPS / SSRDSQGFQEF the result was nd, nd, nd (controls 0 of 9).
With EGDSLGYYSAN / GKYNRPS / SSRDSSGFQVF the result was 2.37, 2.48, 2.27 (mean 2.37; controls 2 of 9).
With EGDSLRYYYAN / GKNNRPS / SSRDSSNFGVT the result was nd, nd, nd (controls 0 of 9).
With PGDSLRYYYTN / GKNNRPS / SSRDSSGFQVF the result was 3.91, 4.08, 4.10 (mean 4.03; controls 1 of 9).
With EGDSLRYYYAE / GKNNRTR / SSRDSSGFQVF the result was 3.61, 4.45, 3.30 (mean 3.79; controls 4 of 9).
With EGDSLRQYYAN / GKQNRPS / SSLDSSGFQVF the result was nd, 3.27, 3.35 (mean 3.31; controls 0 of 9).
With VGDSLRYYYAN / GKNNRPS / SSRDSSGFIVS the result was 2.40, 2.15, 2.41 (mean 2.32; controls 4 of 9).
With EGESLRYYQAN / GKNNRPS / SSRYSSGFQVF the result was 1.80, 1.52, 1.14 (mean 1.48; controls 4 of 9).
With EGDWFRIYYAN / GKNNRPS / SSRDSSGFQVF the result was 4.63, nd, nd (controls 3 of 9).
With EGDQLRYYYQI / GKNNRPS / SSRDSSGFQVF the result was nd, nd, nd (controls 0 of 9).
With EIDSLRYYYAH / GTNNRPS / SSRDSSGFQVF the result was nd, nd, 3.48 (controls 1 of 9).
With EGDSLRYYYAN / GKNYRPS / SSLDSTGFQVF the result was 4.14, nd, 4.25 (mean 4.20; controls 3 of 9).
With EGDSLYYYYCN / GKNNRPC / SSRDSSGFQVF the result was 3.74, nd, 4.10 (mean 3.92; controls 3 of 9).
With EGQSLRYYYAN / GKNFRPS / SSRDSSGFLVF the result was 2.71, 3.42, 2.22 (mean 2.78; controls 1 of 9).
With QGDSLRYYYFN / GKNNRPS / SSRDSSGFSVF the result was 4.08, 3.51, 3.16 (mean 3.58; controls 4 of 9).
With EYDSLRYYYAN / GKNNRPS / SSRSSSRFQVF the result was 3.68, nd, nd (controls 1 of 9).
With ETDSLRYYYAN / GKNNRPS / SSRDSSGFQVF the result was 3.07, 4.23, 2.57 (mean 3.29; controls 2 of 9).
With LCDSLRYYYAN / GKNNRLS / SSRDSSGFQVF the result was 3.68, nd, 4.33 (mean 4.00; controls 3 of 9).
With EGDSLRYYYAC / GKNNRPS / SSRDSIGPQVF the result was nd, nd, nd (controls 0 of 9).
With NGDSHRYYYAN / GKNNRPS / SSRDSSGFMVF the result was 2.99, 4.24, 3.28 (mean 3.51; controls 3 of 9).
With EGDSLRYYYAE / GKNNRPS / SCRDSSGFCVF the result was nd, 3.35, nd (controls 3 of 9).
With EGDSWRYYYAN / GNNDRPS / SSRDSSGFQVF the result was 3.73, 3.27, 3.85 (mean 3.62; controls 1 of 9).
With EGDSLRYYYAN / GKNNRFS / SSRDISGFQNF the result was 3.08, 3.25, nd (mean 3.17; controls 0 of 9).
With EGDSLRVYYAA / GKNNRPS / SSRDSSGFGVF the result was nd, nd, 4.03 (controls 4 of 9).
With EGDSLRYYRAN / GKNNRPS / SSRKSSNFQVF the result was 3.14, 3.27, 2.40 (mean 2.94; controls 1 of 9).
With EGQSLRYYYAN / GKNNQPS / SSRDSSGQQVF the result was nd, nd, nd (controls 3 of 9).
With EGDSLRTYYAN / GKNNRPQ / SSRNSSGFQVF the result was nd, 3.42, nd (controls 1 of 9).
With EGDSLRYYYYL / GKNNRIS / SSRDSSGFQVF the result was nd, nd, nd (controls 2 of 9).
With EGDSLRYYYAN / GKNNRPS / SIRDSNGFQVF the result was nd, 3.23, nd (controls 3 of 9).
With EGDSLYYYYAN / GKNNRPS / SSRDSSGFQVF the result was 2.96, 3.38, nd (mean 3.17; controls 4 of 9).
With EGDSLRYYYAN / LKGNRPS / HSRDSSGFQVF the result was 4.20, nd, nd (controls 4 of 9).
With EGESLRMYYAN / GKNNRPT / SSRDSSGFQVF the result was 2.65, 3.08, 2.40 (mean 2.71; controls 5 of 9).
With EGDSLRAYYAN / GKNNRMS / SSRDSSGFQVR the result was nd, 3.28, 3.68 (mean 3.48; controls 1 of 9).
With EGDSLRYFHAN / GKNFRPS / SSRDSSGFQVF the result was 2.48, 2.62, 2.36 (mean 2.49; controls 5 of 9).
With EGDSLRYYYAN / WKNNRPS / SSVDSSGFQVI the result was nd, nd, nd (controls 0 of 9).
With YGDSLRYYYAN / GKNNRPS / YSRDKSGFQVF the result was nd, nd, nd (controls 1 of 9).
With EGDSLSYYVAN / GKNNRPS / SSRDSSGFQCF the result was 4.53, 3.07, 2.30 (mean 3.30; controls 3 of 9).
With EGDSLRYYYAN / GKPNRPA / SMRDSSGFQVF the result was nd, nd, nd (controls 2 of 9).
With EGDSLRYYYAN / EENNRPS / SGRDSSGFQVF the result was 3.21, 2.71, 2.24 (mean 2.72; controls 2 of 9).

For reference, 3 entries of the list once more:

{"CDR-L1": "EGDSHRYYQAN", "CDR-L2": "GENNRPS", "CDR-L3": "SSRDSSGFQVF", "log10 Kd (nM) by replicate": "2.40, 2.45, 2.26", "mean, log10 nM": "2.37", "signal with controls": "3/9"}
{"CDR-L1": "EGSSLSYYYAN", "CDR-L2": "GKNNRPS", "CDR-L3": "SSRDSSGFQVL", "log10 Kd (nM) by replicate": "2.62, 2.81, 1.91", "mean, log10 nM": "2.45", "signal with controls": "4/9"}
{"CDR-L1": "EGDSLRYYYAN", "CDR-L2": "GKNNRPS", "CDR-L3": "SSADSGGFQVF", "log10 Kd (nM) by replicate": "2.70, 2.39, 2.85", "mean, log10 nM": "2.65", "signal with controls": "7/9"}

For reference, the parent read 2.31 as the reference entry and 2.25 as a member of this library. Background: pairings of library AAYL52 with three empty control strains gave a value in 28% of cases (median 3.91, 5th percentile 2.90). Values in that range, when seen in few replicates, are hard to tell from nonspecific mating. For each scFv, signals with the empty controls are counted beside the result.